As usually defined, the Ki is the equilibrium dissociation constant of an inhibitor or competing ligand from its target.

The chains behind the UniProt entries cited, without tags or fusion partners.
UniProt P35372, whole entry, looked up: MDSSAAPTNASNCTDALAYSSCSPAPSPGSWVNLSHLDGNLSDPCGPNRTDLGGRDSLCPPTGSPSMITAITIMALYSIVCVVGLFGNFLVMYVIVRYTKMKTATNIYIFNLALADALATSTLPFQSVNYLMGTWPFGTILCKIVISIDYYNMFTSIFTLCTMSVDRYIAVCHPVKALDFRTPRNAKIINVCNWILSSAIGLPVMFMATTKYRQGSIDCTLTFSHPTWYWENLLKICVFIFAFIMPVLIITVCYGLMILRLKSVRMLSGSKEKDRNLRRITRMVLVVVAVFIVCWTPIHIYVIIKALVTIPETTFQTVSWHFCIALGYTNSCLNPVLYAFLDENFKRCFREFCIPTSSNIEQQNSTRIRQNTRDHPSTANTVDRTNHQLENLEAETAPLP

These results are taken from ChEMBL document CHEMBL3286325, “Synthesis and evaluation of three structurally related ¹⁸F-labeled orvinols of different intrinsic activities: 6-O-[¹⁸F]fluoroethyl-diprenorphine ([¹⁸F]FDPN), 6-O-[¹⁸F]fluoroethyl-buprenorphine ([¹⁸F]FBPN), and 6-O-[¹⁸F]fluoroethyl-phenethyl-orvinol ([¹⁸F]FPEO)” (2014).

Series [1] deals with Serum. The experiment in a line: Drug uptake in Sprague-Dawley rat serum at 8 to 10 MBq after 5 mins. Particulars: strain Sprague-Dawley.
Series [2] deals with Serum. Description: Drug uptake in Sprague-Dawley rat serum at 40 to 80 MBq, iv after 5 mins. Conditions: in vivo, strain Sprague-Dawley.
Series [3] concerns Serum. Description: Drug uptake in Sprague-Dawley rat serum at 40 to 80 MBq, iv after 40 mins. Conditions: in vivo, strain Sprague-Dawley.
Series [4] has as its system Brain. The experiment in a line: Metabolic stability in mouse brain assessed as intact compound level after 30 mins. Conditions: 0.5 h.
A short description of series [5]: Binding affinity to Sprague-Dawley rat serum protein at 40 to 80 MBq, iv after 40 mins. Particulars: strain Sprague-Dawley.
The test system of series [6] is Brain. The experiment in a line: Metabolic stability in Sprague-Dawley rat brain assessed as remaining compound level at 40 to 80 MBq, iv after 5 mins. Particulars: in vivo, strain Sprague-Dawley.
The subject of series [7] is Brain. Description: Metabolic stability in Sprague-Dawley rat brain assessed as remaining compound level at 40 to 80 MBq, iv after 20 mins. Conditions: in vivo, strain Sprague-Dawley.
For series [8], the system named is Brain. Description: Metabolic stability in Sprague-Dawley rat brain assessed as remaining compound level at 40 to 80 MBq, iv after 40 mins. Conditions: in vivo, strain Sprague-Dawley.
Another series deals with Cerebellum. Description: Ratio of SUV of drug uptake in Sprague-Dawley basal ganglia to cerebellum at 16 to 57 GBq/umol, iv up to 85 mins by PET analysis. Particulars: rat, in vivo, strain Sprague-Dawley.
For series [9], the system named is Blood. The experiment in a line: Metabolic stability in Sprague-Dawley rat blood assessed as intact compound level at 40 to 80 MBq, iv after 5 mins by radio-TLC analysis. Particulars: strain Sprague-Dawley.
The test system of series [10] is Brain. The experiment in a line: Metabolic stability in Sprague-Dawley rat brain assessed as intact compound level at 40 to 80 MBq, iv after 5 mins by radio-TLC analysis. Conditions: in vivo, strain Sprague-Dawley.
Series [11] deals with Blood. Description: Metabolic stability in Sprague-Dawley rat blood assessed as intact compound level at 40 to 80 MBq, iv after 20 mins by radio-TLC analysis. Conditions: strain Sprague-Dawley.
Series [12] has as its system Blood. The experiment in a line: Metabolic stability in Sprague-Dawley rat blood assessed as intact compound level at 40 to 80 MBq, iv after 40 mins by radio-TLC analysis. Particulars: strain Sprague-Dawley.
Series [13] relates to Brain. Description: Metabolic stability in Sprague-Dawley rat brain assessed as intact compound level at 40 to 80 MBq, iv after 20 mins by radio-TLC analysis. Conditions: in vivo, strain Sprague-Dawley.
Series [14] has as its system Brain. The experiment in a line: Metabolic stability in Sprague-Dawley rat brain assessed as intact compound level at 40 to 80 MBq, iv after 40 mins by radio-TLC analysis. Conditions: in vivo, strain Sprague-Dawley.
Another series concerns the target Mu-type opioid receptor (Homo sapiens, UniProt P35372). Conditions: cho.

In the case of `CC(C)(O)[C@H]1C[C@@]23CC[C@@]1(OCC[18F])[C@@H]1Oc4c(O)ccc5c4[C@@]12CCN(CC1CC1)[C@@H]3C5`, the Drug uptake was determined as 14% in the series on Serum [1], 48% in the series with Serum [2] and 29% in the series with Serum [3]. Further, the Stability in the series on Brain [4] was 80%; in the series with Brain [6] it was 94%; in the series on Brain [7] it was 92%; with Brain [8], 93%; in the series on Blood [9], 12.5%; in the series on Brain [10], 94.6%. Further, the Stability was 6.9% in the series with Blood [11], 4.8% in the series with Blood [12], 98% in the series on Brain [13] and 96.9% with Brain [14]. The PB in series [5] was determined as 9%. Further, the Ratio in the series with Cerebellum is 5.03.

With `CO[C@]12CC[C@@]3(C[C@@H]1C(C)(C)O)[C@H]1Cc4ccc(O)c5c4[C@@]3(CCN1CC1CC1)[C@H]2O5`, on Mu-type opioid receptor, the Ki came out at 0.07 nM.
